Experiment: UN Test 3(a)(i) Bureau of Explosives (BOE) impact machine drop-weight test
Details: 3.63 kg weight dropped from 25.4 cm, ten trials; failure = at least one decomposition

C#CCBr [neat propargyl bromide, 3-bromopropyne]
BOE impact test result (pass/fail): failed

Reference: US20040176474A1 (priority 2003, published 2004)
